The nature of this test: Scintillation Proximity RBP4 Binding Assay: Untagged human RBP4 purified from urine of tubular proteinuria patients was purchased from Fitzgerald Industries International. It was biotinylated using the EZ-Link Sulfo-NHS-LC-Biotinylation kit from Pierce following the manufacturer's recommendations. Binding experiments were performed in 96-well plates (OptiPlate, PerkinElmer) in a final assay volume of 100 μl per well in SPA buffer (1×PBS, pH 7.4, 1 mM EDTA, 0.1% BSA, 0.5% CHAPS). The reaction mix contained 10 nM 3H-Retinol (48.7 Ci/mmol; PerkinElmer), 0.3 mg/well Streptavidin-PVT beads, 50 nM biotinylated RBP4 and a test compound. Nonspecific binding was determined in the presence of 20 μM of unlabeled retinol. The reaction mix was assembled in the dark under dim red light. The plates were sealed with clear tape (TopSeal-A: 96-well microplate, PerkinElmer), wrapped in the aluminum foil, and allowed to equilibrate 6 hours at room temperature followed by overnight incubation at +4° C. Radiocounts were measured using a TopCount NXT counter (Packard Instrument Company).

As to `O=C(c1n[nH]c2c1CCN(C1COC1)C2)N1CCC(c2cc(F)cc(F)c2C(F)(F)F)CC1`, the IC50 was determined as 21 nM. As for `O=C(c1n[nH]c2c1CCN(CC(F)(F)F)C2)N1CCC(c2cc(F)cc(F)c2C(F)(F)F)CC1`, the IC50 is 24.2 nM.
